Test results as given in US9908890B2, “Selective inhibitors of constitutive androstane receptor” (ST. JUDE CHILDREN'S RESEARCH HOSPITAL, priority 2014, dated 2018).

Molecular target: T1, GST-hCAR-LBD (Homo sapiens, UniProt Q14994)
T1 construct: purchased Life Technologies (Carlsbad, Calif.) or Invitrogen (Carlsbad, Calif.)
T1 sequence (Q14994 109-352 limits assumed): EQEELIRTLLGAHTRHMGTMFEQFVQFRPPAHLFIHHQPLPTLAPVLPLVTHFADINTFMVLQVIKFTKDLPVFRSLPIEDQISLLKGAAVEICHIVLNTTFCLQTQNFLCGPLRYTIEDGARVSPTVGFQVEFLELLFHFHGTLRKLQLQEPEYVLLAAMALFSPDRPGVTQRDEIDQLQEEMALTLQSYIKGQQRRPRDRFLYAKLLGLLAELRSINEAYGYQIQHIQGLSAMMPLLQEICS
Test: CoAct binding inverse agonist assay (LanthaScreen TR-FRET, fluorescent PGC-1α coactivator recruitment/repression)
Assay type: biochemical
Experimental: The effect of putative CAR ligands on the recruitment or repression of PGC-1α binding to hCAR was evaluated by using a LanthaScreen TR-FRET assay according to the manufacturer's instructions. […] The final DMSO concentration was 0.7% in all assay wells. […] The % Inhibition values were then plotted for individual chemicals. When applicable, the graphic software GraphPad Prism 5.04 (GraphPad Software, La Jolla, Calif., USA) was used to fit the data into a one-site competitive-binding equation to derive IC50 values. […] The assay plates were then briefly spun down and incubated for 1 hour at room temperature (25° C.). […] The final DMSO concentration was 0.7% in all assay wells. […] The % Inhibition values were then plotted for individual chemicals. When applicable, the graphic software GraphPad Prism 5.04 (GraphPad Software, La Jolla, Calif., USA) was used to fit the data into a one-site competitive-binding equation to derive IC50 values.

With CCOC(=O)Nc1ccc2c(c1)N(C(=O)CN1[C@H]3CC[C@@H]1CC3)c1ccccc1CC2 [Compound 20, ethyl (5-(2-((1s,4s)-7-azabicyclo[2.2.1]heptan-7-yl)acetyl)-10,11-dihydro-5H-dibenzo[b,f]azepin-3-yl)carbamate] the IC50 was 1.41 µM.
